Measured values as given in article PMC8009258, “The genotype‐phenotype landscape of an allosteric protein” (Molecular Systems Biology, 2021).

Amino acid sequences for entries named in this document (tags omitted).
UniProt P03023, whole entry R195H/G265D/A337D: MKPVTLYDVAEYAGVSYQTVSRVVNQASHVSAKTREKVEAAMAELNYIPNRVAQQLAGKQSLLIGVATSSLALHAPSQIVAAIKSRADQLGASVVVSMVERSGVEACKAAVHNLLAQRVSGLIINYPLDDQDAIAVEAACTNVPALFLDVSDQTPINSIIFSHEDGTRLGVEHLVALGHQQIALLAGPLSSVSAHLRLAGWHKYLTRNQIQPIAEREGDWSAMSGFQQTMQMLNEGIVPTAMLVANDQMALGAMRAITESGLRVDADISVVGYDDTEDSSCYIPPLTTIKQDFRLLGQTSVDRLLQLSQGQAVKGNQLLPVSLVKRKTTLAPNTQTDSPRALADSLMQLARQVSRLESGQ
UniProt P03023, whole entry R195H/G265D: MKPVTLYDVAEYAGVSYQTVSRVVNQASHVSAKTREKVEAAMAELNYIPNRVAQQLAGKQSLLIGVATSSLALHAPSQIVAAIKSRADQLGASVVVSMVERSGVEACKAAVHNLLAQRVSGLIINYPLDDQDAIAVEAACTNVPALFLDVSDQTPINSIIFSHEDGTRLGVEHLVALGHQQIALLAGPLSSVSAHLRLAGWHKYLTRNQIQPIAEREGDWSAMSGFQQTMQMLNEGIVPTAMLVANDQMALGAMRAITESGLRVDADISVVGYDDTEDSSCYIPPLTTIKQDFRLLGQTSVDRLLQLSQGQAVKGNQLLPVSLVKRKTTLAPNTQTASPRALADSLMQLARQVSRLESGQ
UniProt P03023, whole entry R195H: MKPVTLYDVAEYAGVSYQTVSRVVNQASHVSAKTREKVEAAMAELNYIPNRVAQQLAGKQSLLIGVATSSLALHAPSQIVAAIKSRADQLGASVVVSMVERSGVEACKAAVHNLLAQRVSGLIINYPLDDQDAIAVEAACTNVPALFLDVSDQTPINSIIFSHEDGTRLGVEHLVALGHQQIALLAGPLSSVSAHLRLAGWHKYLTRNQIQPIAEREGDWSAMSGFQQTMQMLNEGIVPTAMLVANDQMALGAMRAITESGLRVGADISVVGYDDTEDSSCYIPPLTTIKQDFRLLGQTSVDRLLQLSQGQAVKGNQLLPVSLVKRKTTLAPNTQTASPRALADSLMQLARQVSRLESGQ
UniProt P03023, whole entry G265D: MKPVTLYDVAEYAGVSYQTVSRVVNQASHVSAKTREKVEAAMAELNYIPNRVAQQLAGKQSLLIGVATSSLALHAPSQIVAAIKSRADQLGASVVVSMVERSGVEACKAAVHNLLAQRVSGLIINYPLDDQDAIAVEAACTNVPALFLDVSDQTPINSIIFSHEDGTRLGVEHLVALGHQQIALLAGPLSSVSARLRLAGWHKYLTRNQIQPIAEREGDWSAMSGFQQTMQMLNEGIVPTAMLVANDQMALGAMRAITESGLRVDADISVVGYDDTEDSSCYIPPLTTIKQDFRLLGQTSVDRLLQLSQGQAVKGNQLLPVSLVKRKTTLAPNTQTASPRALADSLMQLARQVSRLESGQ
UniProt P03023, whole entry: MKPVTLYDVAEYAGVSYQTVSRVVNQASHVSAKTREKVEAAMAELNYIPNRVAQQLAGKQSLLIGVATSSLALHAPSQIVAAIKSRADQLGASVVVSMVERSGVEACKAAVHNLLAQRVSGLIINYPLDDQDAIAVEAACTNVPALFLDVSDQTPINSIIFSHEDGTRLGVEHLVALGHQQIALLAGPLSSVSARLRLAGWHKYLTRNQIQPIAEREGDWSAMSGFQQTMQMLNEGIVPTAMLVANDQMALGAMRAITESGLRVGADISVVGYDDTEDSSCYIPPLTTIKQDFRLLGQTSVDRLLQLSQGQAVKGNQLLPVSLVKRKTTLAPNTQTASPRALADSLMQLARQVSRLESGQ

Legend:
lac repressor (LacI) [1] = molecular target: lac repressor (LacI) (Escherichia coli, UniProt P03023, R195H/G265D/A337D)
lac repressor (LacI) [2] = molecular target: lac repressor (LacI) (Escherichia coli, UniProt P03023, R195H/G265D)
lac repressor (LacI) [3] = molecular target: lac repressor (LacI) (Escherichia coli, UniProt P03023, R195H)
lac repressor (LacI) [4] = molecular target: lac repressor (LacI) (Escherichia coli, UniProt P03023, G265D)
lac repressor (LacI) [5] = molecular target: lac repressor (LacI) (Escherichia coli, UniProt P03023)

For `CC(C)S[C@@H]1O[C@H](CO)[C@H](O)[C@H](O)[C@H]1O` [IPTG], the “IPTG dose-response (band-stop) of LacI-regulated YFP by flow cytometry in E. col” value (lac repressor (LacI) [1]) was “a strong band‐stop variant identified from the library with only three amino acid substitutions (R195H/G265D/A337D; blue diamonds)”, the “IPTG dose-response (band-stop) of LacI-regulated YFP by flow cytometry in E. col” value (lac repressor (LacI) [2]) was “the combination of two substitutions (R195H/G265D) gave rise to the band‐stop phenotype” and the EC50 (lac repressor (LacI) [3]) was “The single‐substitution R195H (orange) or G265D (green) results in sigmoidal dose‐response curves similar to wild‐type LacI”. For the same molecule, the EC50 (lac repressor (LacI) [4]) was “The single‐substitution R195H (orange) or G265D (green) results in sigmoidal dose‐response curves similar to wild‐type LacI” and the EC50 (lac repressor (LacI) [5]) was “Dose‐response curves measured with flow cytometry for selected LacI variants: wild‐type LacI (gray “X”s)”.
